# Measurements as given in PubChem BioAssay AID1893 (NMMLSC, 2009).
# The entries are a selection whose mix differs from that of the whole data set. The source made the active and inactive calls. No stated cut-off is given here; in the data, active means percent response mostly above about 71% (no sharp cut-off); inactive means mostly below about 38%.
# Tested on: MEKK2 (MAP3K2) mutant PB1 domain binding MEK5, human
# Assay: mutant MEKK2 PB1-MEK5 binding signal retest – biochemical, single concentration, multiplex bead flow cytometry, confirmation (AID 1893);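 further: higher means compound restores mutant binding toward wildtype level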
# Conditions: Alexa488-MEK5 binding to MEKK2 mutant, at 10 µM, active compounds read high
row,SMILES,percent response
1,CCC1=CC2Cc3nc4ccc(Cl)cc4c(N)c3C(C1)C2 (configuration not stated),inactive: 31%
2,CN(CCCl)Cc1cc(Cl)c(NC2=NCCN2)c(Cl)c1,inactive: 10%
